Biological target: purified recombinant human PARP (Homo sapiens, UniProt P09874)
Assay: PARP enzyme assay, [3H]NAD incorporation, IC50
Format: biochemical
Details: approximate values

Protein sequences, listed by entry. Tags and fused reporters are not part of them.
UniProt P09874, whole entry: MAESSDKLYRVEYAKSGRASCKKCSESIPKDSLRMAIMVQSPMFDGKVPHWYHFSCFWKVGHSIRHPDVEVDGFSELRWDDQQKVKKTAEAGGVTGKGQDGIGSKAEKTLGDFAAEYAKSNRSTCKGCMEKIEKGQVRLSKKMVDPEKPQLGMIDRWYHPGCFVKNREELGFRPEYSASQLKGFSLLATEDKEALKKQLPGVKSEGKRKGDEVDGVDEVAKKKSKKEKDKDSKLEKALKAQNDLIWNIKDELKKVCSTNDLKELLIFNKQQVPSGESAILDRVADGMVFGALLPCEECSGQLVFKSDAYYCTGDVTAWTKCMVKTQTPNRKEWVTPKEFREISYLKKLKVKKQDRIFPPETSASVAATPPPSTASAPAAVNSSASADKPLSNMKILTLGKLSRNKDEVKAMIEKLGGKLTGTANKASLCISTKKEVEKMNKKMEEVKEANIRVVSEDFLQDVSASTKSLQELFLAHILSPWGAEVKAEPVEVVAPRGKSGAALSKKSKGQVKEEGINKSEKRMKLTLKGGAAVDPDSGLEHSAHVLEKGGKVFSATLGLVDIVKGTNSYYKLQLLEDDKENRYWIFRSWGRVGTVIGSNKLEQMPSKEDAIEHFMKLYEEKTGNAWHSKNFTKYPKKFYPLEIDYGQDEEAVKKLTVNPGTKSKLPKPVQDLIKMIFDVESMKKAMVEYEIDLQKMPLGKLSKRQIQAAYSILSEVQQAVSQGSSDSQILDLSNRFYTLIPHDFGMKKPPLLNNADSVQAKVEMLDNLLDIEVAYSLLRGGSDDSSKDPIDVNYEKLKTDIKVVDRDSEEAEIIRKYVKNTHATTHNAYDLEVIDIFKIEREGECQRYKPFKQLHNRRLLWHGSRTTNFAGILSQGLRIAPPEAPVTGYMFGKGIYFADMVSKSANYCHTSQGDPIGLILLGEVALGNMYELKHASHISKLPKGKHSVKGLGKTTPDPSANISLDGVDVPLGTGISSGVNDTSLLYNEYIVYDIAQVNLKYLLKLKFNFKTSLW

| SMILES | IC50 [nM] | IC50 (tested form: TFA) [nM] |
| --- | --- | --- |
| CC(O)CNCCCC(=O)N1CCc2[nH]c(=O)c3ccccc3c2C1 (single isomer, unassigned) [18u] | 66 | – |
| C[S+]([O-])CC[C@H](N)C(=O)N1CCc2[nH]c(=O)c3ccccc3c2C1 (some centres unmarked) | – | 172 |
| C[C@H](N)C(=O)N1CCc2[nH]c(=O)c3ccccc3c2C1 | – | 107 |
| CC(O)CNCCCC(=O)N1CCc2[nH]c(=O)c3ccccc3c2C1 (single isomer, unassigned) [18t] | 128 | – |
| O=C([C@@H]1CCCCN1)N1CCc2[nH]c(=O)c3ccccc3c2C1 | – | 129 |
| N[C@@H](CCC(=O)O)C(=O)N1CCc2[nH]c(=O)c3ccccc3c2C1 | – | 159 |
| N[C@@H](Cc1c[nH]cn1)C(=O)N1CCc2[nH]c(=O)c3ccccc3c2C1 | – | 329 |
| O=C(CCCN1CCc2ccccc2C1)N1CCc2[nH]c(=O)c3ccccc3c2C1 | 1160 | – |

From patent US7247641B2, “Compounds, derivatives, compositions, preparation and uses” (MGI GP, Inc., priority 2001, dated 2007)
